For one compound, IC50 results are on record in patent US6934639B1, “Methods for designing agents that interact with MMP-13” (Wyeth, priority 2000, dated 2005).

The assay addresses MMP-13 (Homo sapiens, UniProt P45452). Briefly: MMP-13 enzyme inhibition (IC50). The assay is classed as biochemical.

The IC50 is the point on the concentration scale where inhibition reaches its midpoint. High values mean weaker potency, low ones greater potency. Consider `COc1ccc(S(=O)(=O)N(Cc2cccnc2)c2c(C)cccc2C(=O)NO)cc1` [Compound A, N-Hydroxy-2-[(4-methoxy-benzenesulfonyl)-pyridin-3-ylmethyl-amino]-3-methyl-benzamide], for which 0.033 µM corresponded to half-maximal inhibition (IC50).
